Where two headings read alike, the source gives them in different places.
Test system: NMRI mice
Settings: dead/6 mice
Experimental: Parallel to this, 500 mg/kg nicotinamide was simultaneously intraperitoneally administered each to the individual dosage groups. 7 days after the beginning of treatment, the blood picture of the individual animals was examined.

With `O=C(CCc1cccnc1)NCCCCC1CCN(C(c2ccccc2)c2ccccc2)CC1` [K22.097, N-[4-(1-diphenylmethylpiperidin-4-yl)-butyl]-3-(pyridin-3-yl)-propionamide] the Mortality (2 × 100 mg/kg K22.097 orally + 2 × 500 mg/kg nicotinamide intraperitoneally) was 0/6, the Mortality (2 × 100 mg/kg K22.097 orally twice daily over 4 days) was 1/6 and the Mortality (2 × 120 mg/kg K22.097 orally + 2 × 500 mg/kg nicotinamide intraperitoneally) was 0/6. The Mortality (2 × 120 mg/kg K22.097 orally twice daily over 4 days) was 3/6.
